B1: His-IQGAP1 C794 (C-terminal 794 amino acids of IQ motif-containing GTPase-activating protein 1) (domain or fragment)
chain: PPMVVVRKFVHLLDQSDQDFQEELDLMKMREEVITLIRSNQQLENDLNLMDIKIGLLVKNKITLQDVVSHSKKLTKKNKEQLSDMMMINKQKGGLKALSKEKREKLEAYQHLFYLLQTNPTYLAKLIFQMPQNKSTKFMDSVIFTLYNYASNQREEYLLLRLFKTALQEEIKSKVDQIQEIVTGNPTVIKMVVSFNRGARGQNALRQILAPVVKEIMDDKSLNIKTDPVDIYKSWVNQMESQTGEASKLPYDVTPEQALAHEEVKTRLDSSIRNMRAVTDKFLSAIVSSVDKIPYGMRFIAKVLKDSLHEKFPDAGEDELLKIIGNLLYYRYMNPAIVAPDAFDIIDLSAGGQLTTDQRRNLGSIAKMLQHAASNKMFLGDNAHLSIINEYLSQSYQKFRRFFQTACDVPELQDKFNVDEYSDLVTLTKPVIYISIGEIINTHTLLLDHQDAIAPEHNDPIHELLDDLGEVPTIESLIGESSGNLNDPNKEALAKTEVSLTLTNKFDVPGDENAEMDARTILLNTKRLIVDVIRFQPGETLTEILETPATSEQEAEHQRAMQRRAIRDAKTPDKMKKSKSVKEDSNLTLQEKKEKIQTGLKKLTELGTVDPKNKYQELINDIARDIRNQRRYRQRRKAELVKLQQTYAALNSKATFYGEQVDYYKSYIKTCLDNLASKGKVSKKPREMKGKKSKKISLKYTAARLHEKGVLLEIEDLQVNQFKNVIFEISPTEEVGDFEVKAKFMGVQMETFMLHYQDLLQLQYEGVAVMKLFDRAKVNVNLLIFLLNKKFYGK
B2: GST-PAK1 RBD (RAC1 binding domain of p21-activated kinase 1) (domain or fragment)
chain: SILPGDKTNKKKEKERPEISLPSDFEHTIHVGFDAVTGEFTGMPEQWARLLQTSNITKSEQKKNPQAVLDVLEFYNSKKTSNSQK
B3: GST-GDI1 (guanosine dissociation inhibitor 1, full-length) (natural protein)
chain: MAEQEPTAEQLAQIAAENEEDEHSVNYKPPAQKSIQEIQELDKDDESLRKYKEALLGRVAVSADPNVPNVVVTGLTLVCSSAPGPLELDLTGDLESFKKQSFVLKEGVEYRIKISFRVNREIVSGMKYIQHTYRKGVKIDKTDYMVGSYGPRAEEYEFLTPVEEAPKGMLARGSYSIKSRFTDDDKTDHLSWEWNLTIKKDWKD

What was measured:
RAC1^P29S, purified [1] = target: T1, RAC1^P29S, purified (human, UniProt P63000 1-192, P29S); test: mGppNHp-bound RAC1
RAC1^T17N, purified [2] = target: T2, RAC1^T17N, purified (human, UniProt P63000 1-192, T17N); test: mGppNHp-bound RAC1
RAC1^F28L, purified [3] = target: T3, RAC1^F28L, purified (human, UniProt P63000 1-192, F28L); test: mGppNHp-bound RAC1
RAC1^P29S, purified [4] = target: T1, RAC1^P29S, purified; test: FP; mGppNHp-bound RAC1
RAC1^F28L, purified [5] = target: T3, RAC1^F28L, purified; test: FP; mGppNHp-bound RAC1
RAC1^P29S, purified [6] = target: T1, RAC1^P29S, purified; test: mGppNHp-bound RAC1; remark: listed apart in the source
RAC1^F28L, purified [7] = target: T3, RAC1^F28L, purified; test: mGppNHp-bound RAC1; remark: listed apart in the source
RAC1^P29S, purified [8] = target: T1, RAC1^P29S, purified; test: mdGDP-bound RAC1
RAC1^P29S, purified [9] = target: T1, RAC1^P29S, purified; test: mdGDP-bound RAC1; remark: listed apart in the source
RAC1^T17N, purified [10] = target: T2, RAC1^T17N, purified; test: mdGDP-bound RAC1
RAC1^F28L, purified [11] = target: T3, RAC1^F28L, purified; test: mdGDP-bound RAC1

Row | Binder | Kd (RAC1^P29S, purified [1]) [nM] | Kd (RAC1^T17N, purified [2]) [nM] | Kd (RAC1^F28L, purified [3]) [nM] | Kd (RAC1^P29S, purified [4]) [nM] | Kd (RAC1^F28L, purified [5]) [nM] | koff (RAC1^P29S, purified [6]) [s⁻¹] | koff (RAC1^F28L, purified [7]) [s⁻¹] | koff (RAC1^P29S, purified [8]) [s⁻¹] | Kd (RAC1^P29S, purified [9]) [nM] | Kd (RAC1^T17N, purified [10]) [nM] | Kd (RAC1^F28L, purified [11]) [nM]
1 | B1 | 145 | 634 | 332 | – | – | – | – | – | – | – | –
2 | B2 | 4370 | – | 510 | 8740 | 850 | 0.075 | 0.0022 | – | – | – | –
3 | B3 | – | – | – | – | – | – | – | 1.11 | 930 | 11100 | 860

From article PMC12702776 (2025)
